Experiment: Solubility of the compound at 100 uM in sodium phosphate buffer with 10% DMSO and 500 uM NADH at pH 7
Conditions: pH 7, 100 µM

## O=[N+]([O-])c1ccc2c(c1)CN(c1ccc([N+](=O)[O-])cc1[N+](=O)[O-])CC2
  solubility: Insoluble
